Chains of the proteins cited; added tags and fusions are not shown.
ATP-dependent Clp protease proteolytic subunit (Bacillus subtilis (strain 168)), P80244, UniProt P80244, whole entry, looked up: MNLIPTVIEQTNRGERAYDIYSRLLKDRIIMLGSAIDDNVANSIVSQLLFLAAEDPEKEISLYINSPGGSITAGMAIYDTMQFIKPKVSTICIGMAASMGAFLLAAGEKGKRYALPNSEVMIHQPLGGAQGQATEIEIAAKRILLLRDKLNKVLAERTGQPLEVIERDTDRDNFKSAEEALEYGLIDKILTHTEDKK

# Nrf2 block: blocks Nrf2 signaling; A549 ARE-Fluc reporter, luciferase luminescence, 18-24 h; Potency, µM (series often up to 46 µM), hits mostly inhibitors; 360,000 tested, 2.1% active; also: nearly all actives have a fitted effect of over 60% in size
#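 Concentration-response testing used A549 ARE_Fluc cells at 5000 cells/well. Following an 18-24 h compound incubation, viability was read by fluorescence (Ex 405/Em 525) and luciferase output by luminescence.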
# Nrf2 activator: activates Nrf2 signaling. AID 624171. AREc32 ARE-luciferase reporter (MCF7-derived line), luminescence, 24 h. Potency, µM (titrated, usually from 46.1 µM), hits mostly activators. 410,000 tested, 0.31% active; also: nearly all actives have a fitted effect of over 65% in size
#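 Nrf2 activation is followed as ARE-luciferase induction in the AREc32 line after one day of compound treatment; luminescence is read with Steady-Glo.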
# miR-21 reporter: raises the signal of a miR-21 reporter; HeLa miR-21 FLuc reporter, luciferase, 48 h; Potency, µM (top dose mostly 38.3 µM); AID 2288; 340,000 tested, under 10 active; active = well fitted rising curve with a large enough effect; inconclusive = small, poorly fitted or top-dose-only effect; inactive = no such curve, though single readings can be large or run the other way;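 note: miR-21 action dims this reporter so a rising signal means less miR-21 action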
#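 HeLa miR-21-FLuc reporter line, endogenous miR-21; 2000 cells/well in DMEM/10% FBS; compound titration up to ~40uM final, 48 h, 37 degree Celsius; luciferase detection reagent, 15 min lysis, CCD luminescence.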
# A549 tox: counter-screen for Nrf2 inhibitors: cytotoxicity in A549 cells | A549 ARE-Fluc cells, CellTiter-Fluor viability, 18-24 h | Potency, µM (titrated, usually from 46 µM), hits mostly inhibitors | 390,000 tested, 0.16% active
#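 A549 ARE_Fluc cells in 5% FBS OPTI-MEM were exposed to compounds in concentration-response for 18-24 h at 37 deg C. Viability was read by CellTiter-Fluor fluorescence (Ex 405/Em 525) after 30 min, before the luciferase read.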
# ClpP mod: qHTS Assay for Activators of ClpP; ATP-dependent Clp protease proteolytic subunit (Bacillus subtilis (strain 168)), P80244; purified B. subtilis ClpP, FRET peptide cleavage, 20 min; Potency, µM (highest dose often 57.5 µM); 340,000 tested, 1.9% active; AID 651965, 2013; active = well fitted falling curve with a large enough effect; inconclusive = small, poorly fitted or top-dose-only effect; inactive = no such curve, though single readings can be large or run the other way; also: the source files actives as falling curves though it sought activators and does not explain the sign; nearly all actives have a fitted effect of over 65% in size
#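 Buffer: 100 mM Tris/HCl pH8, 100 mM KCl, 0.05% low protease BSA, 2.5% glycerol, 0.01% Tween-20. ClpP 10 microg/mL final; 20 min RT; delta FRET normalized to ADEP and DMSO controls.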
# p53 reactivator: mutant p53 re-activation in reporter cells; 320,000 tested, 0.063% active; Potency, µM (titrated, usually from 92.2 µM), actives largely listed as activators; AID 504706; H1299 p53-A138V BP100-luciferase reporter, luminescence, 24 h; also: nearly all actives have a fitted effect of over 45% in size
#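 p53-null H1299 cells stably carrying temperature-sensitive p53-A138V and a BP100-luciferase reporter were pinned with compounds (4-point, 1:5 series) and held 24 hrs at 37 deg C. Luminescence was read 10 min after detection reagent.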
# Numbers stand for hits; i = inactive; ? = inconclusive; nt = no result given; [ ] = another dose, or the depositor's remark. Shown are actives, neighbours in structure and some others; about 3.7% of the full set was active somewhere. Unless noted, calls follow the shape of the dose curve; as a rule, active = well fitted curve in the direction sought with a large enough effect; inconclusive = small, poorly fitted or top-dose-only effect, or another doubt; inactive = no such curve, though single readings can be large; an effect the other way counts as inactive or inconclusive.
SMILES,Nrf2 block,Nrf2 activator,miR-21 reporter,A549 tox,ClpP mod,p53 reactivator
COCC(=O)N(CCc1ccccc1)Cc1cc2cc(C)ccc2nc1Cl,i,i,i,i,i,nt
Cc1ccc(C2CC(=O)n3nc(-c4ccc(F)cc4)nc3S2)cc1 (stereo not given),i,i,i,i,i,nt
CCOc1ccc(C(=O)NCCc2sc(-c3ccc(F)cc3)nc2C)cc1,nt,i,i,i,25µM,nt
CCOc1ccc(C(=O)NCCc2sc(-c3ccc(C)cc3)nc2C)cc1,nt,i,i,i,i,nt
CCN(Cc1ccccc1)C(=O)Cn1c(=O)cc(C)c2c(C)nn(-c3cccc(F)c3)c21,21µM,i,i,i,?,nt
COc1ccc(C2Nc3ccccc3C(=O)N2Cc2ccccc2)cc1COc1ccc(F)cc1 (stereo not given),i,nt,nt,i,nt,nt
COc1cccc(/C=C/C(=O)OCC(=O)Nc2cc(C(F)(F)F)ccc2Cl)c1,?,i,i,i,35µM,i
COc1cccc(/C=C/C(=O)OCC(=O)Nc2ccc(Cl)c(S(=O)(=O)N(C)C)c2)c1,i,i,i,i,nt,i
COc1cccc(/C=C/C(=O)OCC(=O)c2c(N)n(C)c(=O)n(C)c2=O)c1,i,i,nt,i,25µM,i
Cc1cc(NC(=O)c2ccco2)cc(-c2nc3cc(Cl)ccc3o2)c1O,?,?,i,i,i,nt
Cc1cnc(-c2nnc(N(C)C(=O)C3CCCO3)s2)cn1 (stereo not given),i,i,i,i,28µM,i
COc1cc(OC)c(NC(=O)NCc2cccn2Cc2ccccc2)cc1Cl,?,i,i,i,i,nt
CCN1CC=C2C(C#N)=C(N)C(C#N)(C#N)C(c3cc(Cl)ccc3Cl)C2C1 (stereo not given),i,i,i,i,22µM,i
CC(C)N1CC=C2C(C#N)=C(N)C(C#N)(C#N)[C@H](c3ccoc3)[C@H]2C1,nt,nt,i,nt,nt,i
CCOC(=O)c1c(Nc2ccc(C)cc2)nnc(-c2ccccc2)c1-c1ccccc1,18µM,i,i,i,i,nt
CCCCCCSc1ccc([C@H]2N[C@@](C)(C(=O)OC)[C@H]3C(=O)N(C)C(=O)[C@@H]23)cc1,26µM,i,nt,i,i,i
CCC(C)NC(=O)CSc1nc(-c2ccc(F)cc2)cc(C(F)(F)F)n1 (stereo not given),i,i,i,i,i,nt
COc1cccc(C2c3c(ncn(CCCN4CCOCC4)c3=N)Oc3ccc4ccccc4c32)c1 (stereo not given),i,nt,nt,15µM,nt,nt
COc1ccc(C2c3c(ncn(CCCN4CCOCC4)c3=N)Oc3ccc4ccccc4c32)cc1OC (stereo not given),i,i,i,?,i,i
COc1ccc(Cc2nc3c4c(ncn3n2)Oc2ccc3ccccc3c2C4c2ccc(OC)c(OC)c2)cc1 (stereo not given),i,i,i,i,13µM,i
Cc1ccccc1CN1C(=O)c2ccccc2Sc2ccc(C(=O)NC(C)c3ccccc3)cc21 (stereo not given),nt,i,i,i,i,nt
C=C1C=CS(=O)(=O)N(Cc2ccccc2)C1,i,nt,nt,i,nt,nt
CCOc1ccc(-c2cc(CCCC(=O)NCCc3cc(OC)c(OC)c(OC)c3)no2)cc1,15µM,i,?,i,i,nt
COc1ccc(-c2noc(CCCC(=O)NCCc3ccccc3)n2)cc1OC,23µM,i,i,i,i,i
CCOc1ccc(-c2nc(-c3ccc(OC)cc3)no2)cc1OCC,?,i,i,i,32µM,?
SMILES,Nrf2 block,Nrf2 activator,miR-21 reporter,A549 tox,ClpP mod,p53 reactivator
CCOc1ccc(-c2cc(CCCC(=O)NCCc3ccc(OC)c(OC)c3)no2)cc1,?,i,?,i,i,nt
CCOc1ccc(CCNC(=O)CCc2nc(-c3ccc(C)cc3)no2)cc1OCC,nt,i,i,i,i,i
CCOc1ccc(CCNC(=O)CCc2nc(-c3ccc(OC)cc3)no2)cc1OCC,nt,i,i,i,25µM,i
Cc1c(CC(=O)N2CCCCC2)c(=O)oc2cc3occ(C(C)(C)C)c3cc12,i,i,i,i,?,nt
COc1ccc(-c2noc(CCCC(=O)NC3CCCCC3)n2)cc1,21µM,i,i,i,nt,i
COc1ccc(-c2noc(CCC(=O)NCCc3cccc(C)c3)n2)cc1,23µM,i,i,i,i,i
COc1ccc(Cl)cc1NC(=O)Cn1c(=O)n(Cc2ccc(F)cc2)c(=O)c2cccnc21,i,i,i,i,i,nt
Cc1c(CC(=O)NCc2ccccc2)c(=O)oc2c(C)c(O)ccc12,i,i,i,i,i,nt
CCS(=O)(=O)Nc1ccccc1C(N)=O,?,i,i,i,nt,i
NC(=O)c1ccccc1NS(=O)(=O)c1ccccc1,i,i,i,i,28µM,i
CN(C)S(=O)(=O)Nc1ccccc1C(N)=O,i,i,i,i,22µM,i
NC(=O)c1ccccc1NS(=O)(=O)Cc1ccc(Cl)cc1,i,i,i,i[1.84 µM],22µM,i
COC(=O)c1ccccc1NC(=O)NCc1ccc2c(c1)CCN2C(=O)c1ccccc1,nt,i,i,i,i,nt
COc1cc(C2Nc3ccccc3C(=O)N2Cc2ccccc2)ccc1OCc1ccc(NC(C)=O)cc1 (stereo not given),i,nt,nt,i,nt,nt
C/C(CC(=O)Nc1ccc(N(C)C)cc1)=N\NC(=O)c1ccc([N+](=O)[O-])cc1Cl,i,i,i,i,25µM,i
CCCCC(=O)NCc1ccc(Cl)cc1,i,i,i,i,20µM,i
CCCCOC(=O)/C=C\C(=O)NC(N)=O,i,16µM,i,i,nt,i
CC(=O)Nc1ccc2[nH]c(C)c(CC=C(Cl)Cl)c(=O)c2c1,?,i,i,i,32µM,i
COc1ccccc1C(=O)NC(CCSC)C(=O)NNC(=O)c1ccccc1O (stereo not given),i,i,nt,i,?,i
COc1ccccc1C(=O)NC(CCSC)C(=O)NNC(=O)c1ccc(F)cc1 (stereo not given),i,i,i,i,28µM,i
CCOc1ccc(-c2nnc(N3CCCCC3)c3ccccc23)cc1,26µM,i,i,i,i,i
COCCNc1nnc(SC(C)C(=O)Nc2c(C)n(C)n(-c3ccccc3)c2=O)s1 (stereo not given),i,i,i,i,i,i
Cc1ccc(C)c(S(=O)(=O)NC(C)C(=O)Nc2ccc(-c3nc4ccccc4s3)cc2)c1 (stereo not given),?,i,i,i,32µM,i
O=C(CNS(=O)(=O)c1cccc(Cl)c1)Nc1ccc(-c2nc3ccccc3s2)cc1,i,i,i,i,i,?
CC(C)(C)c1ccc(S(=O)(=O)NCC(=O)Nc2ccc(-c3nc4ccccc4s3)cc2)cc1,?,i,i,i,5µM,?
